For two compounds, EC50 results are on record in patent publication US7439039B2, “Assays for novel serotonin transporter (SERT) blockers” (priority 2003, dated 2008).

Protein sequences, listed by entry. Tags and fused reporters are not part of them.
UniProt Q60857, whole entry G39E/K152R: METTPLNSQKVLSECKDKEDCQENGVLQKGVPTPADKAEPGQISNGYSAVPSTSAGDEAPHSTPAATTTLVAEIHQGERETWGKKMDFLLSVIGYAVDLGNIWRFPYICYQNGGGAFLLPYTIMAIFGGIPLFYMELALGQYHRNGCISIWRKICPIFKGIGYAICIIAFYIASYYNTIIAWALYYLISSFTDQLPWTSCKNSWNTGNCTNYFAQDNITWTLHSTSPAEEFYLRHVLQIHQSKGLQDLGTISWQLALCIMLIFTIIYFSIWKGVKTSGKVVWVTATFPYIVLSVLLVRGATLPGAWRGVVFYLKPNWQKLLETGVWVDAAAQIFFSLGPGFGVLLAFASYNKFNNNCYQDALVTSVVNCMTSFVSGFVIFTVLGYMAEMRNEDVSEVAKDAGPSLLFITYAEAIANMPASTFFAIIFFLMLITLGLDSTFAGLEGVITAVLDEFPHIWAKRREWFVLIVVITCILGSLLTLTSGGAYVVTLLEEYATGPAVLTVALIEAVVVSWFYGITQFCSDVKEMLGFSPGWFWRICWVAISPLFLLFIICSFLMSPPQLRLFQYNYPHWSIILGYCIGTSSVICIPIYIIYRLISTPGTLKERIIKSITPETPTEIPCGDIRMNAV

This assay has as its target mSERT WT (Mus musculus, UniProt Q60857, G39E/K152R). Description: cell-based.

Take `NCCc1c[nH]c2ccc(O)cc12` [5HT, 5-hydroxytryptamine]: the EC50 came out at 0.6 µM. In the case of `CN1c2ccccc2C(NCCCCCCC(=O)O)c2ccc(Cl)cc2S1(=O)=O` (centres unmarked) [Tianeptine], the EC50 was found to be 3.8 µM.
